For 3 compounds, Ki results are on record in patent US8859505B2, “Cysteine protease inhibitors” (Medivir UK Ltd, priority 2010, dated 2014).

Chains of the proteins cited; added tags and fusions are not shown. Residues count along the entry.
UniProt P25774, 115-331 limits assumed: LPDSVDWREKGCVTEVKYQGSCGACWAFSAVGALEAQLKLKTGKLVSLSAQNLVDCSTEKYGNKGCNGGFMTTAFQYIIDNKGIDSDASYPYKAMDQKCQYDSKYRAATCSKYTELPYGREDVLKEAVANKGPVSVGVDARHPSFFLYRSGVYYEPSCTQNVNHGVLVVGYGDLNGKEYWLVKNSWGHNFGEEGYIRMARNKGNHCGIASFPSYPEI
UniProt P43235, 115-329 limits assumed: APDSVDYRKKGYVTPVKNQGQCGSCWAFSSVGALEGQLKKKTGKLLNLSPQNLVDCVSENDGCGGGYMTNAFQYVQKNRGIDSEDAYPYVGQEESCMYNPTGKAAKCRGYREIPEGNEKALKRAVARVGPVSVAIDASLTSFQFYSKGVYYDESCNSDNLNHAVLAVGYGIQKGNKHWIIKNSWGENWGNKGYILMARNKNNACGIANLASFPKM
UniProt P07711, 114-333 limits assumed: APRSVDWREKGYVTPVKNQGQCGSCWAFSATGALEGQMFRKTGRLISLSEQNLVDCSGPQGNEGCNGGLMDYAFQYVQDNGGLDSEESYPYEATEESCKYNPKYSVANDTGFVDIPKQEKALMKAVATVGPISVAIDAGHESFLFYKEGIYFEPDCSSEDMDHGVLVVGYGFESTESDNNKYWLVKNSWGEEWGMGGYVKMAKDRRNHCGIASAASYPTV

One assay has as its target human cathepsin S (Homo sapiens, UniProt P25774). Description: Cathepsin S Ki determination. The following applies: read-out: Ki Cat. S; baculovirus-expressed enzyme, boc-Val-Leu-Lys-AMC substrate, pH 6.5.
The target of assay [1] is human recombinant cathepsin K (Homo sapiens, UniProt P43235). Description: Determination of cathepsin K proteolytic catalytic activity (Ki). As to conditions: read-out: Ki Cat. K; fluorogenic substrate H-D-Ala-Leu-Lys-AMC.
Another assay addresses human cathepsin L (Homo sapiens, UniProt P07711). Description: Cathepsin L Ki. As to conditions: read-out: Ki Cat. L; H-D-Val-Leu-Lys-AMC substrate, pH5.5.

For the compound `CC(C)(C)C[C@H](NC(=O)C(C)(C)F)C(=O)NC1(C(=O)C(N)=O)CCC1`, the Ki – broadly, a dissociation constant, usually derived from enzyme kinetics or from competition with a known ligand – at human cathepsin S stood at 19 nM; in assay [1], 220 nM; at human cathepsin L, 4300 nM.

Turning to `NC(=O)C(=O)C1(NC(=O)[C@H](CC2(F)CCCC2)NC(=O)C2CC2)CCCC1`, the Ki stood at 9.7 nM at human cathepsin S, 7500 nM in assay [1] and 18000 nM at human cathepsin L.

As to `CC(C)(C)C[C@H](NC(=O)OC(C)(C)C)C(=O)NC1(C(=O)C(N)=O)CCC1`, the Ki on human cathepsin S turned out to be 8.3 nM; in assay [1], 510 nM; on human cathepsin L it was 9700 nM.
